Activity calls are given as the source filed them.
Assays:
Format in all cases: cell-based
Conditions in all cases: filed as activator
[1] = target: Calcium-activated potassium channel subunit alpha-1 (Homo sapiens) (UniProt Q12791); assay: Activation of human BKca expressed in HEK293T cells at 10 uM by patch clamp electrophysiology method
[2] = target: T1, ATP-sensitive inward rectifier potassium channel 10 (Homo sapiens) (UniProt P78508); assay: Activation of human Kir4.1 expressed in HEK293T cells at 10 uM by patch clamp electrophysiology method
T1 sequence (whole entry): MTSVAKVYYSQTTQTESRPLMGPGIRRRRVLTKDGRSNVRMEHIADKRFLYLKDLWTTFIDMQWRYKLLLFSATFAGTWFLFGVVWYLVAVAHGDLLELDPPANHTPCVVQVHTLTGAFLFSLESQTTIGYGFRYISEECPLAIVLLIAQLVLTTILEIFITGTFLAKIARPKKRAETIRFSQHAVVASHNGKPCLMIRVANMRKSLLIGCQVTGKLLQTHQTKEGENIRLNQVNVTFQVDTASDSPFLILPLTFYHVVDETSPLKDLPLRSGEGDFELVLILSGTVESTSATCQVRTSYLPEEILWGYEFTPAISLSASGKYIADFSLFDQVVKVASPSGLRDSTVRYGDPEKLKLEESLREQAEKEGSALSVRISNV

By UniProt entry, the sequences of proteins in these tests, tags left out. Where a name states a change or a piece, a line headed by the entry shows the natural chain unless it says otherwise.
UniProt Q12791: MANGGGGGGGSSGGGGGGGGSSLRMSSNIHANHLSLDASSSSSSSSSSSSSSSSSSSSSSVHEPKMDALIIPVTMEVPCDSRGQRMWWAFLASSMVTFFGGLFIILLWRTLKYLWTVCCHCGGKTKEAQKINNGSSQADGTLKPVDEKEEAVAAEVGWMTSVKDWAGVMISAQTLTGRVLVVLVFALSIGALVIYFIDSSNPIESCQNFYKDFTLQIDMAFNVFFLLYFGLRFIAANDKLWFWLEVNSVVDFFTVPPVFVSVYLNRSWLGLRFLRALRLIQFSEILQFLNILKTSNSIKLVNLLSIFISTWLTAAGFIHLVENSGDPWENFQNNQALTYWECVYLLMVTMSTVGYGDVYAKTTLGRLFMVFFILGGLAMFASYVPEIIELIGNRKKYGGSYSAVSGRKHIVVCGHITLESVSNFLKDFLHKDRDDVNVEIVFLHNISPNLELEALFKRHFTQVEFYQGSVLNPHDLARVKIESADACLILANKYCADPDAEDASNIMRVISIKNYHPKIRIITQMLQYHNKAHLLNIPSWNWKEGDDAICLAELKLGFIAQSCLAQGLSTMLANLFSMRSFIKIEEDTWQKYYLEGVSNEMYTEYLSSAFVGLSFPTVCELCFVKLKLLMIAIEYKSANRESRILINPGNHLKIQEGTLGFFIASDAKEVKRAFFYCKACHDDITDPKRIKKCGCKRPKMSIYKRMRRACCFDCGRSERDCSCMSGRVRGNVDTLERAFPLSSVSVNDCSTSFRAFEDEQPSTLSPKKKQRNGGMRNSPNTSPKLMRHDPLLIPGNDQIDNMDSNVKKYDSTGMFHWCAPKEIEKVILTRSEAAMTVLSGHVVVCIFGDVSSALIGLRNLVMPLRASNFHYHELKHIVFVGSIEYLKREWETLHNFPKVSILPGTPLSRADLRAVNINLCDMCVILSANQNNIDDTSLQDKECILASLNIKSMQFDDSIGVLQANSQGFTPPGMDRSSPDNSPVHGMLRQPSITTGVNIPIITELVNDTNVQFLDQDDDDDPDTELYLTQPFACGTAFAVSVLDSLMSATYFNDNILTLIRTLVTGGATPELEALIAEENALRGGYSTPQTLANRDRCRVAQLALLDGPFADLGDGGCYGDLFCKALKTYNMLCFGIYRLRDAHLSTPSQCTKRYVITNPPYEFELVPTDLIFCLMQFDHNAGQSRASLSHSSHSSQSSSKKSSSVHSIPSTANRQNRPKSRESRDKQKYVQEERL
UniProt P16389, whole entry: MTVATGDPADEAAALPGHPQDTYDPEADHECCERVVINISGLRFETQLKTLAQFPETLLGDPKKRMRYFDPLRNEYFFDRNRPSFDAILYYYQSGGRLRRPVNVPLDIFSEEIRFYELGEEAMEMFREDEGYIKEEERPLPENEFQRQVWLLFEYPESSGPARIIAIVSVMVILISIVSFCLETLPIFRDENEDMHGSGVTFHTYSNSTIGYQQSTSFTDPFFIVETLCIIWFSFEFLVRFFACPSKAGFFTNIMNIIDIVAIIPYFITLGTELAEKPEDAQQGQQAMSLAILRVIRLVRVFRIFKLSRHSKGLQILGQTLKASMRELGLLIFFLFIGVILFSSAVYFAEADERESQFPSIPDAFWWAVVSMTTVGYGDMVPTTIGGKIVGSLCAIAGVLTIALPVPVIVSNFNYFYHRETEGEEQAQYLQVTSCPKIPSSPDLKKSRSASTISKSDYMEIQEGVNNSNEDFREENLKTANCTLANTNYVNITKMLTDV

[3] = target: T2, Potassium channel subfamily K member 2 (Homo sapiens) (UniProt O95069); assay: Activation of human TREK-1 channel expressed in CHO cells at 10 uM by patch clamp electrophysiology method
T2 sequence (whole entry): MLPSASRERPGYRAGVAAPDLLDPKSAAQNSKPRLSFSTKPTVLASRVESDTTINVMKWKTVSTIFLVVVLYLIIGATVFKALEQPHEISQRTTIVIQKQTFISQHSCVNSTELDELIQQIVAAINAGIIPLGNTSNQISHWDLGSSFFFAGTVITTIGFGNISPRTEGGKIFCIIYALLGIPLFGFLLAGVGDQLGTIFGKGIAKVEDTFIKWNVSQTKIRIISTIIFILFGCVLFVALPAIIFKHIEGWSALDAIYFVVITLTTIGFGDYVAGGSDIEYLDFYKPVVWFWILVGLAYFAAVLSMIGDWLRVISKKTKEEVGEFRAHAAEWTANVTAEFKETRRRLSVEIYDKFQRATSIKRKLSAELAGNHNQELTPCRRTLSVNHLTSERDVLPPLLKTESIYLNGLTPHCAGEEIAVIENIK

[4] = target: Potassium voltage-gated channel subfamily A member 2 (Homo sapiens) (UniProt P16389); assay: Activation of human Kv1.2 expressed in HEK293T cells at 10 uM by patch clamp electrophysiology method

Measured: Activity

Cc1ccc(CSCc2nnc(SCC(=O)Nc3ccc(Br)cc3Br)n2C)cc1
active: [1] | [2] | [3] | [4]
